Source: PubChem BioAssay
ARNT TACC3 PPI = disrupts binding between human ARNT and TACC3; Q9Y6A5; AlphaScreen His-ARNT PAS-B/GST-TACC3 binding, luminescence; TACC3 fragment carries E629A point mutation; inhibition, % at 9.99 µM; 390,000 tested, 0.66% active; AID 623870;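 active means mean inhibition of replicates at least 50% and at least half of replicates each reaching 50%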;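 further: 0% = complete ARNT plus TACC3 wells and 100% = ARNT alone without TACC3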
Yeast UUG start = alters start codon recognition fidelity in yeast; S. cerevisiae UUG-firefly luciferase reporter, luminescence/redox ratio; activity score, % at 18.7 µM; actives 0.13% (n = 350,000); AID 602363;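 active = replicate mean at a twofold rise or more, about +100% in these data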;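 also: firefly luciferase made from a UUG start codon reports start codon fidelity; reporter light over untreated wells divided by growth signal over untreated wells; some hits fall short of that in this replicate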
Vif imaging = HIV Vif inhibition | HEK293T cells, Vif self-association by quenched fluorescence, imaging, 24 h | inhibition, % at 7.49 µM | 340,000 tested, 0.35% active | AID 602346; in the data active means inhibition above about 50%, passing the limit was not always enough
CAL PDZ FP-1 = blocks peptide binding to human CAL PDZ domain; Q9HD26; purified CAL PDZ, TMR-peptide fluorescence polarization, 1 h; inhibition, % at 20 µM; 330,000 tested, 0.02% active;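 active means highest replicate inhibition of at least 40%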;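 further: plate controls were DMSO neutral control wells for no effect and unlabeled competitor peptide control wells for full effect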
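Test system: purified CerCALP PDZ construct; Compound dosing: one concentration, 20 µM compound; Also added: TMR-labelled reporter peptide T*-PRC34 bound in PDZ groove; Read-out: inhibition from polarization loss; Controls: unlabelled peptide and DMSO controls; Signal: FP readout, S and P plane fluorescence; Incubation: 1 h at RT.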
CAL PDZ FP-2 = inhibitors of human CAL PDZ peptide binding; Q9HD26; 300,000 tested, 0.92% active; inhibition, % at 24.9 µM; purified CAL PDZ, TMR-peptide fluorescence polarization, 1 h;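 active means mean inhibition of at least 30% with at least half of replicates also reaching 30%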;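 further: 0% = DMSO neutral control and 100% = excess unlabeled competitor peptide PRC23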
PglD DTNB = blocks C. jejuni PglD acetyltransferase activity; purified PglD enzyme, DTNB colorimetric CoA detection; inhibition, % at 12.5 µM; 360,000 tested, 0.098% active; in the data active means inhibition above about 16%, passing the limit was not always enough
* = called active by the depositor; nt = not tested or not shown; + = active, no number. An excerpt weighted towards active compounds, which were near 1.6% of everything screened.

Screens by letter – A = ARNT TACC3 PPI; B = Yeast UUG start; C = Vif imaging; D = CAL PDZ FP-1; E = CAL PDZ FP-2; F = PglD DTNB
1: N#CC1(NC(=O)COC(=O)c2cc(=O)[nH]c3ccccc23)CCCCC1
  A = -19	B = -3	C = 25	D = -2	E = 32*	F = -4

2: COc1ccc(CNC(=O)COC(=O)c2cc(S(=O)(=O)N3CCOCC3)ccc2O)cc1OC
  A = -1	B = -17	C = 51*	D = 0	E = 1	F = 2

3: O=C(COC(=O)c1ccc(F)c(S(=O)(=O)N2CCOCC2)c1)c1ccccc1
  A = nt	B = -19	C = nt	D = -3	E = 12	F = nt

4: O=C(COC(=O)c1cc(=O)[nH]c2ccccc12)Nc1cccc(S(=O)(=O)N2CCOCC2)c1
  A = 16	B = 8	C = -4	D = -6	E = 76*	F = 3

5: O=C(COC(=O)c1cc(=O)[nH]c2ccccc12)Nc1ccc(Cl)c(S(=O)(=O)N2CCOCC2)c1
  A = 9	B = -3	C = 0	D = -5	E = -7	F = 7

6: O=C(COC(=O)c1cc(S(=O)(=O)N2CCOCC2)ccc1F)c1ccccc1
  A = nt	B = 0	C = nt	D = -1	E = 43*	F = -1

7: C[C@H]1CN([C@@H](C)CO)C(=O)c2cc(NC(=O)CCCCCC(=O)Nc3ccccc3N)ccc2O[C@H]1CN(C)S(=O)(=O)c1cn(C)cn1
  A = -4	B = -4	C = nt	D = nt	E = nt	F = -7

8: C[C@H]1CN([C@@H](C)CO)S(=O)(=O)c2ccc(C#CC3CC3)cc2O[C@@H]1CN(C)Cc1ccncc1
  A = 23	B = -6	C = nt	D = nt	E = nt	F = 10

9: O=C(OCC(=O)N1CCCc2ccccc21)c1cc(S(=O)(=O)N2CCOCC2)ccc1O
  A = nt	B = -7	C = 1	D = 0	E = 65*	F = -1

10: O=C(OCC(=O)N1CCCc2ccccc21)c1cc(S(=O)(=O)N2CCOCC2)ccc1F
  A = -3	B = 7	C = -1	D = -1	E = -3	F = 5

11: CC1CCN(c2ccc3c(c2)S(=O)(=O)c2cccc(C(=O)NCc4cccc(F)c4)c2C3=O)CC1
  A = -9	B = -16	C = 8	D = 0	E = -1	F = 2

12: O=C(NCc1ccc(OC(F)(F)F)cc1)c1cccc2c1C(=O)c1ccc(N3CCCCC3)cc1S2(=O)=O
  A = 0	B = -5	C = 55*	D = 2	E = -6	F = 4

13: O=C(NCc1cccc(C(F)(F)F)c1)c1cccc2c1C(=O)c1ccc(N3CCC(Cc4ccccc4)CC3)cc1S2(=O)=O
  A = -7	B = -3	C = 122*	D = 1	E = -1	F = 3

14: O=C(NCc1cccc(F)c1)c1cccc2c1C(=O)c1ccc(N3CCC(Cc4ccccc4)CC3)cc1S2(=O)=O
  A = -6	B = 0	C = 121*	D = 2	E = -1	F = -5

15: COCC(=O)N1C[C@H](C)[C@@H](OC)CN(C)C(=O)c2ccc(NC(=O)NC(C)C)cc2OC[C@H]1C
  A = -2	B = 3	C = nt	D = nt	E = nt	F = -2

16: O=C(C[C@@H]1CC[C@H]2[C@@H](COC[C@H](O)CN2Cc2cc(F)cc(F)c2)O1)NC1CCCC1
  A = -1	B = -8	C = nt	D = nt	E = nt	F = -2

17: O=C(CNC(=O)c1cccc([N+](=O)[O-])c1)NC1CCCc2ccccc21 (stereo not drawn)
  A = nt	B = nt	C = 2	D = -1	E = 35*	F = nt

18: CC1(C)CC(=O)C(CC(=O)NC2CCCc3ccccc32)C(=O)C1 (stereo not drawn)
  A = -6	B = nt	C = -2	D = 1	E = 106*	F = nt

19: Cc1ccccc1CC(=O)NC1CCCc2ccccc21 (stereo not drawn)
  A = -5	B = -9	C = -5	D = 2	E = -3	F = 3

20: O=C(CCNC(=O)c1ccc([N+](=O)[O-])cc1)NC1CCCc2ccccc21 (stereo not drawn)
  A = 1	B = -14	C = 5	D = -2	E = 0	F = 3

21: CCOC1=CC(=O)N(Cc2ccccc2)C1
  A = 5	B = nt	C = -3	D = 0	E = 69*	F = nt

22: CCOc1ccc(S(=O)(=O)N2CCN(Cc3ccccc3)CC2)cc1
  A = -1	B = -27	C = 5	D = 3	E = nt	F = -2

23: Cc1nccn1-c1ccc(C=O)cc1
  A = -2	B = nt	C = 3	D = 0	E = 121*	F = nt

24: O=Cc1ccc(-n2cccn2)cc1
  A = -6	B = -28	C = 16	D = -1	E = 10	F = -7

25: COC(CNC(=O)C1CCN(C(=O)c2cc3oc(C)cc3n2Cc2c(F)cccc2Cl)CC1)OC
  A = -5	B = nt	C = 55*	D = -3	E = 0	F = nt

Three entries from above, arranged by the value under PglD DTNB, largest number first.
Screens by letter – A = ARNT TACC3 PPI; B = Yeast UUG start; C = Vif imaging; D = CAL PDZ FP-1; E = CAL PDZ FP-2; F = PglD DTNB
8: C[C@H]1CN([C@@H](C)CO)S(=O)(=O)c2ccc(C#CC3CC3)cc2O[C@@H]1CN(C)Cc1ccncc1
  A = 23	B = -6	C = nt	D = nt	E = nt	F = 10

20: O=C(CCNC(=O)c1ccc([N+](=O)[O-])cc1)NC1CCCc2ccccc21 (stereo not drawn)
  A = 1	B = -14	C = 5	D = -2	E = 0	F = 3

22: CCOc1ccc(S(=O)(=O)N2CCN(Cc3ccccc3)CC2)cc1
  A = -1	B = -27	C = 5	D = 3	E = nt	F = -2

(listing goes on)
Screens by letter – A = ARNT TACC3 PPI; B = Yeast UUG start; C = Vif imaging; D = CAL PDZ FP-1; E = CAL PDZ FP-2; F = PglD DTNB
26: CC1=NN(c2nc3ccccc3[nH]2)C(=O)/C1=C/N(C)C
  A = 68*	B = nt	C = -4	D = -1	E = -1	F = nt

27: C/C(CC(=O)Nc1ccc(Cl)cc1Cl)=N\NC(=O)C(=O)N1CCCC1
  A = -8	B = nt	C = 3	D = -2	E = -2	F = nt

28: C/C(CC(=O)Nc1ccccc1Br)=N\NC(=O)C(=O)N1CCCC1
  A = 6	B = -18	C = -1	D = 0	E = 108*	F = 0

29: O=C1S/C(=C/c2ccc(N3CCOCC3)o2)C(=O)N1Cc1c(F)cccc1Cl
  A = 4	B = -12	C = +	D = 0	E = -1	F = 2
